## scFv variants of Ab-91 (heavy chain) against a SARS-CoV-2 spike peptide

All variants were tested on one target, the spike HR2 peptide PDVDLGDISGINAS (SARS-CoV-2).

The variants keep the light chain, the linker and the frameworks of Ab-91 (scFv order VL, a (GGGGS)3 linker, VH).
VL: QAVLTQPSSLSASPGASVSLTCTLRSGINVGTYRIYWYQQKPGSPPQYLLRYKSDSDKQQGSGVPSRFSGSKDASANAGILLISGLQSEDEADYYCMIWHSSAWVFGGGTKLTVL
VH: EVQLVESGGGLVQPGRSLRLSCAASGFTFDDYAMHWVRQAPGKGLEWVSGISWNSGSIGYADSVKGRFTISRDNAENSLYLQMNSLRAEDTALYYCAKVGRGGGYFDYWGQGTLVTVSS

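The parent was found by panning a naive human phage display library on the peptide. Variants in AAYL51 differ from the parent at up to three CDR positions; double and triple changes were sampled at random. AlphaSeq pools MATa yeast showing the antibodies with MATalpha yeast showing the peptide. The frequency of each diploid, read from paired DNA barcodes, reflects how well the two displayed proteins bind. Scores were corrected for input abundance and mapped to Kd with protein pairs of known affinity run in the same pool. Each pool was mated in three replicate cultures.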

Variants are written as CDR1, CDR2 and CDR3 of the heavy chain (limits as in the source). Parent: GFTFDDYAMH, GISWNSGSIGYADSVK, VGRGGGYFDY.
This list gathers variants with a substitution at Y32 (VH, numbered from residue 1).
Affinities are written as log10 Kd with Kd in nM; a lower number is a better binder.
A mean of the replicates is given; it leaves out those without a signal.
"nd" means that the variant was in the library but no mating with the target was seen in any replicate; the authors take this as a sign of poor binding, and no number exists.
Empty control strains, which show no peptide, gave a signal in 21% of pairings with library AAYL51; the median was 4.54 and 95% of these signals were weaker than 3.26. No background was subtracted. Also given: how often the same scFv was detected with the empty control strains.

- GFTFDDQAMH | GISWNSGSIGLADSVK | VGPGGGYFDY -> nd (0 of 3 replicates; controls 1 of 9)
- GFTFDDMWMH | GNSWNSGSIGYADSVK | VGRGGGYFDY -> nd (0 of 3 replicates; controls 0 of 9)
- GFTFDDLAPH | MISWNSGSIGYADSVK | VGRGGGYFDY -> 4.07 (1 of 3 replicates; controls 0 of 9)
- GFTFDDKKMH | GISWNSGSIGYRDSVK | VGRGGGYFDY -> 3.60 (1 of 3 replicates; controls 1 of 9)
- GFTFDDMAMH | GISWNSGSIGYADVVK | VGRGGFYFDY -> 4.36 (3 of 3 replicates; controls 3 of 9)
- GFTFDDQAMH | GISRNSGSIGSADSVK | VGRGGGYFDY -> nd (0 of 3 replicates; controls 2 of 9)
- GFTFDDFAMC | GISWNSGSIGYADSVK | VGRGGGYFDY -> 1.12 (3 of 3 replicates; controls 2 of 9)
- GFNFDDHAMH | GISWNSGSIGYADSVK | VGRGGGYWDY -> 2.57 (3 of 3 replicates; controls 2 of 9)
- GFTFDDDAMH | IISWNSGSIGYMDSVK | VGRGGGYFDY -> 4.78 (2 of 3 replicates; controls 1 of 9)
- GFTFDDTAMH | GISWNSGSIGYADSVK | VGRSGGFFDY -> 4.56 (2 of 3 replicates; controls 2 of 9)
- AFTFDDAAMH | GISWNSGSIGYADSVK | FGRGGGYFDY -> nd (0 of 3 replicates; controls 1 of 9)
- GFTFDDEAMH | GISWNSGSIGEADSVK | VGRQGGYFDY -> 4.96 (3 of 3 replicates; controls 5 of 9)
- GFTFDDDAMH | GISWNSGSIGYASSVK | VGRQGGYFDY -> nd (0 of 3 replicates; controls 3 of 9)
- GFTFDDVAMH | GISWNSGSIGYAWSVK | QGRGGGYFDY -> 5.60 (1 of 3 replicates; controls 2 of 9)
- GFTFDDFAMH | GICWNSGSIGYADSVK | VGRGGGYFDY -> 4.26 (2 of 3 replicates; controls 2 of 9)
- GFSFDDGAMH | GISWNSGSIGYADSVK | VGRQGGYFDY -> 5.24 (2 of 3 replicates; controls 6 of 9)
- GFTFDDTAMH | GISWNSGSIGYADSVY | VGRGGGYFDY -> 1.66 (3 of 3 replicates; controls 2 of 9)
- GFTFDDIAMH | GISWFSGSIGYADSVK | VGRGGGYFDY -> 5.42 (3 of 3 replicates; controls 6 of 9)
- GFTFDDKAMH | GISTNPGSIGYADSVK | VGRGGGYFDY -> 4.73 (2 of 3 replicates; controls 8 of 9)
- GFTFDDHAMH | GISWNSGSIGYANSVK | VGRGGGQFDY -> 2.19 (3 of 3 replicates; controls 7 of 9)
- GFTFDDDAMH | GISWNSGSIGYADSVK | VGRGGFYFDQ -> 3.00 (1 of 3 replicates; controls 0 of 9)
- GFTFDDMAMH | GISWNSGSIGYADKVK | VGRGGGYFDW -> 3.36 (3 of 3 replicates; controls 6 of 9)
- GFTFDDGAMH | GVSWNSGSIGYADSVK | VGRGGAYFDY -> 4.99 (2 of 3 replicates; controls 5 of 9)
- GFTFDDDAMH | GISSNSGSRGYADSVK | VGRGGGYFDY -> 2.19 (1 of 3 replicates; controls 1 of 9)
- CFTFDDTAMH | GISWNWGSIGYADSVK | VGRGGGYFDY -> 4.91 (2 of 3 replicates; controls 0 of 9)
- GFTFDDSAMH | GTSWNSGSIGYADSVK | VGRTGGYFDY -> 3.87 (2 of 3 replicates; controls 0 of 9)
- GFTFDDKAMH | GISWNSGLSGYADSVK | VGRGGGYFDY -> nd (0 of 3 replicates; controls 0 of 9)
- GFTFDDTAMH | GISWNSGSQGYADSYK | VGRGGGYFDY -> 4.98 (2 of 3 replicates; controls 7 of 9)
- GFTFDDVAMH | FISFNSGSIGYADSVK | VGRGGGYFDY -> nd (0 of 3 replicates; controls 0 of 9)
- GFTFDDQAMH | GISWNSGSIGYADSVK | VGMGGGYFNY -> nd (0 of 3 replicates; controls 0 of 9)
- GGTFDDQAMH | GISWNVGSIGYADSVK | VGRGGGYFDY -> nd (0 of 3 replicates; controls 0 of 9)
- LFTFVDRAMH | GISWNSGSIGYADSVK | VGRGGGYFDY -> 4.00 (2 of 3 replicates; controls 1 of 9)
- GRTFDDTAMH | GISWNSGSIGEADSVK | VGRGGGYFDY -> nd (0 of 3 replicates; controls 1 of 9)
- TVTFDDQAMH | GISWNSGSIGYADSVK | VGRGGGYFDY -> nd (0 of 3 replicates; controls 1 of 9)
- GFTFDDIAMH | GISWNSGSIGYADSCQ | VGRGGGYFDY -> 3.82 (1 of 3 replicates; controls 1 of 9)
- GFTFDDCAMH | GISWNSGSIGYADSVK | VGRGPGDFDY -> 6.24 (1 of 3 replicates; controls 4 of 9)
- GFTFDDVAMH | GISWNKGSIGYADSVK | GGRGGGYFDY -> nd (0 of 3 replicates; controls 0 of 9)
- PFTFDDRAMH | GISWNSGSIGYADSVK | VGRGGGYFDV -> 3.36 (2 of 3 replicates; controls 2 of 9)
- GFTFDEVMMH | GISWNSGSIGYADSVK | VGRGGGYFDY -> 4.10 (1 of 3 replicates; controls 0 of 9)
- GFTFDDRAMH | GISWNSGSIGYADSVK | VGDGGGYFDY -> 4.77 (3 of 3 replicates; controls 5 of 9)
- GFTFDDGAMH | GISWNSGSMGYADSVK | VGRGGGYFDY -> nd (0 of 3 replicates; controls 1 of 9)

A selection of 3 entries from above:

{"CDR-H1": "GFTFDDTAMH", "CDR-H2": "GISWNSGSIGYADSVK", "CDR-H3": "VGRSGGFFDY", "mean log10 Kd (nM)": "4.56", "replicates with signal": "2 of 3", "signal with controls": "2 of 9"}
{"CDR-H1": "GFTFDDQAMH", "CDR-H2": "GISWNSGSIGLADSVK", "CDR-H3": "VGPGGGYFDY", "mean log10 Kd (nM)": "nd", "replicates with signal": "0 of 3", "signal with controls": "1 of 9"}
{"CDR-H1": "GFTFDDFAMC", "CDR-H2": "GISWNSGSIGYADSVK", "CDR-H3": "VGRGGGYFDY", "mean log10 Kd (nM)": "1.12", "replicates with signal": "3 of 3", "signal with controls": "2 of 9"}

From the AlphaSeq antibody data of Engelhart et al. 2022 (doi:10.1038/s41597-022-01779-4), copy in the FLAb collection.